# Test results as given in PubChem BioAssay AID588819 (The Scripps Research Institute Molecular Screening Center, 2011).
# Amino acid sequences for entries named in this document (tags omitted).
# UniProt P11229, whole entry: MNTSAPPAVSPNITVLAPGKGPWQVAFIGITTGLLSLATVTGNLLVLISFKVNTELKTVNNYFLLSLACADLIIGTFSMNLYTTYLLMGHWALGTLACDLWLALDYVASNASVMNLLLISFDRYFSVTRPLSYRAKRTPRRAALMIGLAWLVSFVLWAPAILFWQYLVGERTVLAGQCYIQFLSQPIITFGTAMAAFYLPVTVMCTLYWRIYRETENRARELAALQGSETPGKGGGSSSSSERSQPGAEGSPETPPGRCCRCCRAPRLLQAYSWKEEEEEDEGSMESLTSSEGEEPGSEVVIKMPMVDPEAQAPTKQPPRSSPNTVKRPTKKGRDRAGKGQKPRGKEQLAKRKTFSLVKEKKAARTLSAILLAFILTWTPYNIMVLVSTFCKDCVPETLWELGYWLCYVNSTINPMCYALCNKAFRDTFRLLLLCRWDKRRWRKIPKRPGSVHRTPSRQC
# The entries are a selection whose mix differs from that of the whole data set. Some salts or complexes appear as unconnected parts, following the source record. Activity calls are given as the source filed them. Rule as the data show it: active = activation above about 19% (passing the limit was not always enough); inactive = the rest.
# Target: Muscarinic acetylcholine receptor M1 (Homo sapiens) (UniProt P11229)
# Experiment: CHRM1 PAMs potentiating acetylcholine calcium signal – CHO-K1 cells, Fluo-8 calcium fluorescence, 1536-well, primary screen (AID 588819)
# Conditions: CHO-K1 hM1, Fluo-8 calcium fluorescence, ACh EC20; at 3 µM; active compounds read high; 0% = ACh EC20, 100% = maximal ACh
row,SMILES,activation
1,COc1ccccc1OP(C)(=O)Nc1ccc(Br)cc1 (stereo not given),inactive: 5.33%
2,COc1ccc(OP(C)(=O)Nc2ccccn2)cc1 (stereo not given),inactive: 3.67%
3,CN(C)CCOC(=O)C(O)(c1ccccc1)C1CCCC1 (stereo not given),inactive: -33.2%
4,Cc1c(NP(C)(=O)Oc2ccc(C(C)C)cc2)c(=O)n(-c2ccccc2)n1C (stereo not given),inactive: 11.2%
5,O=[N+]([O-])c1cc([N+](=O)[O-])c(Nc2ccccn2)c([N+](=O)[O-])c1,inactive: 1.37%
6,COc1ccccc1OP(C)(=O)Nc1ccc(C)cc1C (stereo not given),inactive: 11%
7,CP(=O)(Nc1ccccn1)Oc1ccccc1 (stereo not given),inactive: 2.6%
8,CCc1ccc(OP(C)(=O)O)cc1,inactive: 7.85%
9,Cc1cc(C)cc(OP(C)(=O)Nc2cccc(C(F)(F)F)c2)c1 (stereo not given),inactive: 7.52%
10,O=C1C(O)=C([N+](=O)[O-])C(=O)C(O)=C1[N+](=O)[O-],inactive: 1.68%
11,COc1ccccc1OP(C)(=O)Nc1ccc(C)c(C)c1 (stereo not given),inactive: 8.27%
12,COc1ccc(OP(C)(=O)Nc2ccccc2Br)cc1 (stereo not given),inactive: 4.88%
13,CCCCCCCCCCCCCCCC1C[N+](C)(C)CCOP(C)(=O)O1 (stereo not given),inactive: -19.8%
14,CP(=O)(Nc1ccc(Cl)cc1Cl)Oc1ccccc1 (stereo not given),inactive: 11.9%
15,CP(=O)(OCCOc1ccccc1)OCCOc1ccccc1,inactive: 4.56%
16,CCOC(=O)c1ccc(NP(C)(=O)Oc2ccc(Cl)cc2)cc1 (stereo not given),inactive: 6.78%
17,CP(=O)(OC12CC3CC(CC(C3)C1)C2)OC12CC3CC(CC(C3)C1)C2,inactive: 0.47%
18,COc1ccc(OP(C)(=O)Nc2ccc(Br)cc2)cc1 (stereo not given),inactive: 8.77%
19,CCN(CC)CC(O)COC(=O)C(O)(c1ccccc1)C1CCCCC1 (stereo not given),inactive: -19.7%
20,O=C(OCCCN1CCCC1)C(O)(c1ccccc1)C1CCCCC1 (stereo not given),inactive: -26.9%
21,COc1ccccc1OP(C)(=O)Nc1c(C)n(C)n(-c2ccccc2)c1=O (stereo not given),inactive: 3.59%
22,CCc1ccc(OP(C)(=O)Nc2cccnc2)cc1 (stereo not given),inactive: 7.23%
23,CP(=O)(Oc1ccccc1)N1CCOC1=O (stereo not given),inactive: 1.57%
24,COc1ccccc1OP(C)(=O)Nc1ccccc1Br (stereo not given),inactive: 3.27%
25,CC(C)(C)c1ccc(OP(C)(=O)O)cc1,inactive: -4.79%

row,SMILES,activation
1,CP(=O)(Nc1ccc(Cl)cc1)Oc1ccc(F)cc1 (stereo not given),inactive: 4.32%
2,CN(C)C(=O)c1c([N+](=O)[O-])cc([N+](=O)[O-])cc1[N+](=O)[O-],inactive: 3.73%
3,CP(=O)(Nc1ccc(SC(F)(F)F)cc1)Oc1ccc(F)cc1 (stereo not given),inactive: -3.84%
4,CCOP(C)(=S)SCC(=O)NC(C)(CC)C(=O)O (stereo not given),inactive: 8.08%
5,CP(=O)(Nc1ccc2c(c1)OCCO2)Oc1ccccc1 (stereo not given),inactive: -1.31%
6,Cc1ccccc1NP(C)(=O)Nc1ccccc1C,inactive: 7.1%
7,COc1ccc(OP(C)(=O)Nc2cccc(Br)c2)cc1 (stereo not given),inactive: 2.59%
8,CN(C)C1(CNC(=O)c2ccc(Cl)c(S(N)(=O)=O)c2)CCCCC1,inactive: 3.72%
9,CN(C)CCOC(=O)C(O)(c1ccccc1)C1CCCCC1 (stereo not given),inactive: -21.6%
10,COc1ccc(NP(C)(=O)Oc2ccccc2OC)cc1 (stereo not given),inactive: -6.21%
11,O=[N+]([O-])c1ccc(OP2(=O)COCCO2)cc1 (stereo not given),inactive: 13.2%
12,Cc1cc(-c2cccc3ccccc23)c(C)cn1.O=[N+]([O-])c1cc([N+](=O)[O-])c(O)c([N+](=O)[O-])c1,inactive: 6.77%
13,O=[N+]([O-])c1cc([N+](=O)[O-])c(NCC2CCS(=O)(=O)C2)c([N+](=O)[O-])c1 (stereo not given),inactive: -12.5%
14,Cc1c(C(c2ccc3c(c2)OCO3)c2c(C)n(C)n(-c3ccccc3)c2=O)c(=O)n(-c2ccccc2)n1C.O=[N+]([O-])c1cc([N+](=O)[O-])c(O)c([N+](=O)[O-])c1,inactive: 4.88%
15,CCOC(=O)c1ccc(NP(C)(=O)Oc2ccc(F)cc2)cc1 (stereo not given),inactive: 4.39%
16,COc1ccc(OP(C)(=O)Nc2ccc(SC(F)(F)F)cc2)cc1 (stereo not given),inactive: 3.5%
17,Cc1c([N+](=O)[O-])cc([N+](=O)[O-])c(Br)c1[N+](=O)[O-],inactive: 1.57%
18,CCN(CC)CCCOC(=O)C(O)(c1ccccc1)C1CCCCC1 (stereo not given),inactive: -20.6%
19,CP(=O)(Nc1ccccc1)Oc1ccc(F)cc1 (stereo not given),inactive: 6.74%
20,CCCCCOc1ccc(NP(C)(=O)Oc2ccc(Cl)cc2Cl)cc1 (stereo not given),inactive: 4.92%
21,O=[N+]([O-])c1cc([N+](=O)[O-])c(OC2CCCCC2O)c([N+](=O)[O-])c1 (stereo not given),inactive: 6.38%
22,O=[N+]([O-])c1cc([N+](=O)[O-])c(Nc2ccc(Cl)cc2)c([N+](=O)[O-])c1,inactive: -12.3%
23,CP(=O)(Nc1ccccc1F)Oc1ccccc1 (stereo not given),inactive: 5.05%
24,CC(C)c1ccc(OP(C)(=O)Nc2ccc(SC(F)(F)F)cc2)cc1 (stereo not given),inactive: -9%
25,O=C(OC1CN2CCC1CC2)c1ccc([N+](=O)[O-])cc1 (stereo not given),inactive: 5.25%

row,SMILES,activation
1,O=C(OCCN1CCN(CCOCc2ccccc2)CC1)C(O)(c1ccccc1)c1ccccc1,inactive: -22.3%
2,COc1ccc2c(c1O)-c1c(O)c(OC)cc3c1[C@H](C2)[N+](C)(C)CC3.O=[N+]([O-])c1cc([N+](=O)[O-])c([O-])c([N+](=O)[O-])c1[O-],inactive: 0.02%
3,COc1ccccc1OP(C)(=O)Nc1cccc(Br)c1 (stereo not given),inactive: 8.75%
4,COc1cc(C(=O)NCC2(N3CCOCC3)CCCCC2)cc(Cl)c1OC(C)C,inactive: -12.3%
5,CCOC(=O)c1ccc(NP(C)(=O)Oc2cc(C)cc(C)c2)cc1 (stereo not given),inactive: -4.6%
6,Cc1cc(C)cc(OP(C)(=O)Nc2ccc(C)cc2C)c1 (stereo not given),inactive: 7.46%
7,Cc1ccc(C)c(NP(C)(=O)Oc2ccccc2)c1 (stereo not given),inactive: 18.4%
8,Cc1cc(C)cc(OP(C)(=O)Nc2ccccn2)c1 (stereo not given),inactive: 1.05%
9,CP(=O)(Nc1cccc(Br)c1)Oc1ccccc1 (stereo not given),inactive: 5.55%
10,O=C(O)c1cccc(Nc2c([N+](=O)[O-])cc([N+](=O)[O-])cc2[N+](=O)[O-])c1,inactive: 7.09%
11,CC1=NCCc2c1[nH]c1ccccc21.O=[N+]([O-])c1cc([N+](=O)[O-])c(O)c([N+](=O)[O-])c1,inactive: 0%
12,CCOC(=O)C(CC)C1=NC(C)(C)Cc2ccccc21.O=[N+]([O-])c1cc([N+](=O)[O-])c(O)c([N+](=O)[O-])c1 (stereo not given),inactive: 2.13%
13,CN(C)C1(CNC(=O)c2ccc(S(C)(=O)=O)cc2)CCCCC1,inactive: 6.73%
14,CC1=C2N=C(C=C3N=C(C(C)=C4[N-][C@@](C)([C@@H]5N=C1[C@](C)(CCC(=O)NC[C@@H](C)OP(=O)([O-])O[C@H]1[C@@H](O)[C@@H](n6cnc7cc(C)c(C)cc76)O[C@@H]1CO)[C@H]5CC(N)=O)[C@@](C)(CC(N)=O)[C@@H]4CCC(N)=O)[C@@](C)(CC(N)=O)[C@@H]3CCC(N)=O)C(C)(C)[C@@H]2CCC(N)=O.[C-]#N.[Co+3],inactive: 3.98%
15,O=[N+]([O-])c1cc([N+](=O)[O-])c(Nc2nnnn2CCO)c([N+](=O)[O-])c1,inactive: 5.03%
16,COc1ccccc1OP(C)(=O)Nc1c(C)cccc1C (stereo not given),inactive: 7.91%
17,CN1CCCCC1COC(=O)C1(O)c2ccccc2CCc2ccccc21 (stereo not given),inactive: -27.5%
18,CCCOc1ccc(NP(C)(=O)Oc2ccc(Cl)cc2)cc1 (stereo not given),inactive: 10.9%
19,CP(=O)(Nc1ccc(SC(F)(F)F)cc1)Oc1ccccc1 (stereo not given),inactive: -6.25%
20,O=[N+]([O-])c1cc([N+](=O)[O-])c(-n2nnc3ccccc32)c([N+](=O)[O-])c1,inactive: 7.31%
21,CN(Cc1cccnc1)C(=O)COc1ccc(Cl)c(Cl)c1.O=[N+]([O-])c1cc([N+](=O)[O-])c(O)c([N+](=O)[O-])c1,inactive: 16.4%
22,O=[N+]([O-])c1cc([N+](=O)[O-])c(-c2cnn(-c3ccccc3)c2)c([N+](=O)[O-])c1,inactive: -6.01%
23,Cc1nc2ccc3ccccc3c2s1.O=[N+]([O-])c1cc([N+](=O)[O-])c(O)c([N+](=O)[O-])c1,inactive: -4.95%
24,CP(=O)(Oc1ccccc1)OC(c1ccccc1)C(F)(F)F (stereo not given),inactive: -2.18%
25,Cc1ccc(Nc2c([N+](=O)[O-])cc([N+](=O)[O-])cc2[N+](=O)[O-])cc1,inactive: 6.14%

row,SMILES,activation
1,Cc1cccc(C)c1OP(C)(=O)Nc1ccc(SC(F)(F)F)cc1 (stereo not given),inactive: 2.97%
2,CP(=O)(Nc1ccc(SC(F)(F)F)cc1)Oc1ccc(Cl)cc1 (stereo not given),inactive: 6.1%
3,Cc1cc(C)cc(OP(C)(=O)Nc2ccc(SC(F)(F)F)cc2)c1 (stereo not given),inactive: 0.61%
4,CP(=O)(NC(=O)Nc1ccccc1)Oc1ccccc1 (stereo not given),inactive: 2.96%
5,CCc1ccc(OP(C)(=O)N2CCN(c3ccc([N+](=O)[O-])cc3)CC2)cc1 (stereo not given),inactive: -12.8%
6,CCOC(=O)c1ccc(NP(C)(=O)Oc2ccc(OC)cc2)cc1 (stereo not given),inactive: -0.61%
7,O=[N+]([O-])c1cc([N+](=O)[O-])c(O)c([N+](=O)[O-])c1.c1ccc(Oc2ccncc2)cc1,inactive: 2.77%
8,CCOP(C)(=S)SCC(=O)NC(C)C(=O)O (stereo not given),inactive: -0.23%
9,CP(=O)(Nc1ccccn1)Oc1ccc(Cl)cc1 (stereo not given),inactive: 8.77%
10,CCCCOc1ccc(C(=O)NCC2(N3CCCCC3)CCCCC2)cc1OC,inactive: 13.2%
11,CP(=S)(Nn1cnnc1)Oc1ccccc1 (stereo not given),inactive: 6.51%
12,CP(=O)(Nc1ccccc1Br)Oc1ccccc1 (stereo not given),inactive: 6.56%
13,COc1ccccc1OP(C)(=O)Nc1ccccc1 (stereo not given),inactive: 11.1%
14,COc1cc(C(=O)NCC2(N3CCOCC3)CCCCC2)ccc1OCC(C)C,inactive: 11.7%
15,O=[N+]([O-])c1cc([N+](=O)[O-])c(Nc2cccnc2)c([N+](=O)[O-])c1,inactive: -8.73%
16,O=[N+]([O-])c1ccc2c(c1)C=Nc1ccccc1O2,inactive: 5.49%
17,Cc1cccc(C)c1OP(C)(N)=O (stereo not given),inactive: -0.05%
18,CC(C)(C)c1ccc(OP(C)(=O)Nc2ccc(SC(F)(F)F)cc2)cc1 (stereo not given),inactive: -10.9%
19,Cc1ccc(NP(C)(=O)Oc2ccccc2)c(C)c1 (stereo not given),inactive: 10.1%
20,COc1ccccc1OP(C)(=O)Nc1ccc(C)cc1 (stereo not given),inactive: 14%
21,CCOC(=O)c1ccc(NP(C)(=O)Oc2ccccc2)cc1 (stereo not given),inactive: 11.7%
22,Cc1cc(C)cc(OP(C)(N)=O)c1 (stereo not given),inactive: 1.59%
23,COc1ccc(OP(C)(=O)Nc2cccc(F)c2)cc1 (stereo not given),inactive: 3.96%
24,COc1ccccc1OP(C)(=O)Nc1cc(Cl)ccc1C (stereo not given),inactive: -0.72%
25,CCN(CC)CCCOC(=O)C(O)(c1ccccc1)c1ccccc1,inactive: -22.2%
